Tested on: B cell line, TNFa signaling counterscreen reporter
Test: TNFa pathway inhibition counter-screen, B-lineage cells – dose response (AID 1259334);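 note: cells stimulated with TNFa after compound preincubation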

**Q.** Which AC50 does the source give for `CCC1=CC2Cc3nc4ccc(Cl)cc4c(N)c3C(C1)C2` (stereo unspecified) here?
**A.** 7.34 µM

Source: PubChem BioAssay AID1259334 (Broad Institute, 2017)
